Source: PubChem (National Center for Advancing Translational Sciences (NCATS))
ASM inhibitor: inhibitors of human secretory acid sphingomyelinase; P17405; placental ASM, HMU-PC fluorogenic substrate, 60 min; Potency, µM (doses to about 57.5 µM), for inactives: top-dose activity change, negative = inhibition, hits mostly inhibitors; 0.006% of 340,000 active; further: potency means the concentration at half of the fitted maximal effect
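Human placenta-derived ASM preincubated with compound 10 min at room temperature, then reacted with 9 uM (final) fluorogenic HMU-PC substrate for 60 min at 37 C. Stop solution raises pH to 10; fluorescence read at Ex 386/Em 447 nm.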
miR-21 reporter: raises the signal of a miR-21 reporter | HeLa miR-21 FLuc reporter, luciferase, 48 h | Potency, µM (highest dose often 38.3 µM), inactives show at the highest dose reporter change, positive = more light | 340,000 tested, under 10 active | AID 2288; active = well fitted rising curve with a large enough effect; inconclusive = small, poorly fitted or top-dose-only effect; inactive = no such curve, though single readings can be large or run the other way;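 note: % of control where 0% means no effect; miR-21 action dims this reporter so a rising signal means less miR-21 action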
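HeLa cells stably expressing CMV-driven firefly luciferase with a downstream miR-21 binding sequence, endogenously expressing miR-21, were treated with titrations (up to about 40uM final) for 48 hours at 37 degree Celsius. Luciferase luminescence was read after lysis.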
RXFP1 antagonist: blocks the human relaxin receptor RXFP1 | AID 1259400 | 0.59% of 350,000 active | HEK293-RXFP1, relaxin-stimulated cAMP HTRF, 30 min; active compounds read low | activity change, negative = inhibition, % at 57.5 µM | Q9HBX9;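 active means activity change of -60% or lower, but not beyond a set lower limit; inconclusive means change between -60% and -40%, or beyond the set limit; inactive means change above -40%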; further: on the % scale 0 is the no-effect control and ±100 the full control effect
Mito fusion act: blocks mitochondrial division or promotes mitochondrial fusion; S. cerevisiae fusion-defective mutant growth rescue, CellTiterGlo 48 h; Potency, µM (doses to about 46.1 µM), for the others: top-dose growth rescue (activation), hits mostly activators; 0.23% of 320,000 active; AID 485298; further: potency means the concentration at half of the fitted maximal effect; % of control where 0% means no effect; nearly all actives have a fitted effect of over 45% in size
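S. cerevisiae fusion-defective temperature-sensitive mutants (e.g. fzo1-1, mgm1-5) grown 48 h at 37C in YPEG (ethanol/glycerol non-fermentable) medium with 23 nl compound per well; growth rescue read as CellTiterGlo luminescence.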
RXFP1 ag: RXFP1 (human) receptor agonism; Potency, µM (top dose mostly 57.5 µM), without a hit: top-dose activation, hits mostly activators; AID 2676; 0.3% of 370,000 active; HEK293T-RXFP1 cAMP TR-FRET, 30 min; response scale: percent of porcine relaxin response, buffer zero; further: potency means the concentration at half of the fitted maximal effect; on the % scale 0 is the no-effect control and ±100 the full control effect; nearly all actives have a fitted effect of over 60% in size
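HEK293T cells stably expressing RXFP1 were pretreated with the PDE4 inhibitor Ro 20174, exposed to compounds for 30 min at 37C, lysed, and cAMP was read by TR-FRET. Data normalized to buffer (basal) and 29 nM porcine relaxin (100%).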
ERG Ets-DNA blk: blocks human ERG Ets domain binding to DNA; Potency, µM (doses to about 76.9 µM), without a hit: at the highest dose FP activity, negative = inhibition, actives largely listed as inhibitors; AID 624246; 0.028% of 370,000 active; P11308; fluorescence polarization, His-ERG Ets domain / labelled DNA; active means well fitted inhibition curve with a large enough effect in the polarisation, with a control signal flat; inconclusive means small, poorly fitted or top-dose-only effect, or effect the other way, or a change in a side signal; inactive means no such curve, though single readings can be large or run the other way; the % refers to the polarisation;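 further: polarization taken with two DNA probes labelled with fluorescein and Texas red; potency means the concentration at half of the fitted maximal effect; % of control where 0% means no effect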
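His-tagged ERG Ets domain (1 uM in the protein solution; 300mM KCl, 50mM Tris-HCl, 1mM EDTA, 1mM DTT, pH 7.5) received compound, then a probe mix of 5 nM fluorescein-DNA and 100nM Texas-615-DNA. Fluorescence polarization was read for both dyes.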
* = called active by the depositor; ? = inconclusive; . = no result given; ! = not active in a repeat. A selection: hits, their analogues and other compounds. The true share with any hit is near 0.72%. Unless noted, the call rests on the fitted dose curve; in most records, active means well fitted curve in the direction sought with a large enough effect; inconclusive means small, poorly fitted or top-dose-only effect, or another doubt; inactive means no such curve, though single readings can be large; an effect the other way counts as inactive or inconclusive.

Field names – A = ASM inhibitor; B = miR-21 reporter; C = RXFP1 antagonist; D = Mito fusion act; E = RXFP1 ag; F = ERG Ets-DNA blk
(1) Cc1cccc(N2CCN(CCCNC(=O)C3CCCN(c4ncnc5c4nc4n5CCCCC4)C3)CC2C)c1 (stereo unspecified)
  A: -1.0% | B: 29.0% | C: 6.4 | D: -5.5% | E: -1.2% | F: 2.9%
(2) Cc1cccc(N2CCN(c3ncnc4c3nc3n4CCCCC3)CC2C)c1 (stereo unspecified)
  A: . | B: ? | C: -69.5* | D: . | E: 4.5% | F: 4.5%
(3) Cc1cc(N2C(=O)C(O)=C(C(=O)c3cc4ccccc4o3)C2c2ccc(Br)cc2)no1 (stereo unspecified)
  A: 11.2% | B: -23.8% | C: 9.8 | D: ? | E: 22.4µM* | F: -0.7%
(4) COc1ccc(OC)c(C2C(C(=O)c3cc4ccccc4o3)=C(O)C(=O)N2c2cc(C)on2)c1 (stereo unspecified)
  A: 1.9% | B: -13.5% | C: . | D: -2.8% | E: ? | F: -8.0%
(5) CCN(CC)CC(=O)Nc1c(C)cccc1C(=O)OC
  A: . | B: . | C: 3.2 | D: . | E: . | F: .
(6) O=C(NCc1cccnc1)C1CCN(S(=O)(=O)c2cc(Cl)ccc2Cl)CC1
  A: -0.1% | B: 15.0% | C: -88.0* | D: ? | E: 0.3% | F: -3.1%
(7) CCC(C(=O)Nc1ccsc1C(=O)OC)c1ccccc1 (stereo unspecified)
  A: 0.5% | B: -8.1% | C: -63.5* | D: -2.1% | E: -0.2% | F: -3.6%
(8) O=C1Cc2ccccc2Sc2ccc(O)cc21
  A: 3.2% | B: -16.3% | C: 6.7 | D: 14.1µM* | E: 1.2% | F: -3.1%
(9) Nc1ccc2c(c1)CC(=O)c1ccccc1S2
  A: -2.8% | B: -43.0% | C: -6.0 | D: 20.0% | E: 0.5% | F: 3.5%
(10) CN1CCN(CCCNc2c(C=O)c(=O)[nH]c3ccccc23)CC1
  A: 4.2% | B: -4.5% | C: -7.4 | D: -1.2% | E: 1.7% | F: 2.9%
(11) CC(=O)N1CC(=O)N=C1SCC(=O)Nc1nc(C)c(-c2ccccc2)s1
  A: -1.7% | B: -12.9% | C: -109.8* | D: -2.0% | E: -2.1% | F: 6.0%
(12) CCOC(=O)c1c(C)n(-c2ccc(C)cc2)c2ccc(OCC(O)CN3CCN(C)CC3)cc12 (stereo unspecified)
  A: -19.3% | B: 23.2% | C: -86.1* | D: -1.0% | E: 0.1% | F: 7.0%
(13) CCOC(=O)c1c(C)[nH]c(-c2csc(N)n2)c1C
  A: 1.0% | B: 0.0% | C: -7.1 | D: 12.3% | E: 3.2% | F: -1.7%
(14) CCOC(=O)c1c(C)[nH]c(-c2csc(C)n2)c1C
  A: -3.5% | B: -45.7% | C: -66.8* | D: 4.1% | E: 1.9% | F: 8.8%
(15) OCCN1CCN(C(=S)Nc2cccc(C(F)(F)F)c2)CC1
  A: -1.2% | B: -4.7% | C: -68.5*! | D: 8.5% | E: 1.2% | F: 2.4%

Exported with bars between the fields: two of the compounds above.
entry | canonical_smiles | ASM inhibitor | miR-21 reporter | RXFP1 antagonist | Mito fusion act | RXFP1 ag | ERG Ets-DNA blk
1 | Cc1cccc(N2CCN(CCCNC(=O)C3CCCN(c4ncnc5c4nc4n5CCCCC4)C3)CC2C)c1 (stereo unspecified) | -1.0% | 29.0% | 6.4 | -5.5% | -1.2% | 2.9%
2 | Cc1cccc(N2CCN(c3ncnc4c3nc3n4CCCCC3)CC2C)c1 (stereo unspecified) | . | ? | -69.5* | . | 4.5% | 4.5%

Marked active in Mito fusion act, of those listed so far:
# | smiles | ASM inhibitor | miR-21 reporter | RXFP1 antagonist | Mito fusion act | ERG Ets-DNA blk
8 | O=C1Cc2ccccc2Sc2ccc(O)cc21 | 3.2% | -16.3% | 6.7 | 14.1µM* | -3.1%

Additional results
Field names – A = ASM inhibitor; B = miR-21 reporter; C = RXFP1 antagonist; D = Mito fusion act; E = RXFP1 ag; F = ERG Ets-DNA blk
(16) CCN1CCN(C(=S)Nc2cccc(C(F)(F)F)c2)CC1
  A: 1.8% | B: -4.9% | C: -5.4 | D: 7.4% | E: -0.3% | F: -4.7%
(17) Cc1ccnc(NC(=O)c2cccc(S(=O)(=O)Nc3ccc(C)cc3C)c2)c1
  A: -5.4% | B: . | C: -77.2* | D: . | E: . | F: ?
(18) O=C1NC(=O)/C(=C/c2ccc(-c3ccc(F)cc3O)o2)S1
  A: . | B: . | C: . | D: 4.61µM* | E: . | F: .
(19) Fc1cccc2sc(Nc3nc4cc5c(cc4s3)OCCO5)nc12
  A: 269.6% | B: -60.4% | C: ? | D: 11.2µM* | E: 4.9% | F: 7.2%
(20) Fc1cccc2sc(Nc3nc4cc5c(cc4s3)OCO5)nc12
  A: 434.8% | B: -66.6% | C: -21.2 | D: ? | E: -0.3% | F: -5.9%
(21) Cc1cccc(N2N=C(C(=O)N3Cc4ccccc4CC3C(N)=O)CCC2=O)c1 (stereo unspecified)
  A: 1.9% | B: . | C: -3.8 | D: . | E: . | F: -15.7%
(22) Cc1ccc(NC(=O)CCc2nnc3ccc(N4CCN(C)CC4)nn23)cc1F
  A: 4.6% | B: -3.1% | C: 11.8 | D: -27.6% | E: 25.1µM* | F: -0.7%
(23) Cc1ccc(CNC(=O)CCc2nnc3ccc(N4CCC5(CC4)OCCO5)nn23)cc1
  A: -2.0% | B: -0.7% | C: 15.7 | D: 4.6% | E: 17.8µM* | F: 16.9%
(24) O=C(CCc1nnc2ccc(N3CCCC3)nn12)Nc1ccc(F)c(F)c1
  A: 2.3% | B: -0.6% | C: 7.2 | D: 4.5% | E: 8.9% | F: 2.4%
(25) COc1ccc(CNC(=O)CCc2nnc3ccc(N4CCC5(CC4)OCCO5)nn23)cc1
  A: 7.2% | B: -3.1% | C: 13.9 | D: 0.5% | E: ? | F: -8.1%
(26) Fc1ccc(Br)cc1C1C=C(c2ccc(Br)s2)Nc2ncnn21 (stereo unspecified)
  A: 51.6% | B: -7.1% | C: -68.2* | D: -2.7% | E: 8.6% | F: 4.0%
(27) O=C(Nc1cccc(C(=O)O)c1)/C(=C\c1ccccc1)NC(=O)c1ccco1
  A: . | B: . | C: -3.0 | D: . | E: . | F: .
(28) CC(=O)Nc1ccc(S(=O)(=O)NCc2ccc3c(c2)cc(C)n3C)cc1
  A: -1.3% | B: 13.3% | C: -1.9 | D: -0.8% | E: 3.0% | F: 14.1µM*
(29) Cc1cc2cc(CNC(=O)c3ccc(S(=O)(=O)N4CCOCC4)cc3)ccc2n1C
  A: -1.9% | B: -10.2% | C: 6.2 | D: -2.7% | E: 0.7% | F: 28.2µM*
(30) Cc1ccc(C(=O)NCCn2c(C)cc3ccccc32)cc1C
  A: . | B: 13.0% | C: . | D: . | E: 0.5% | F: 0.4%
(31) Cc1cc2cc(CNC(=O)c3ccc(S(=O)(=O)N(C)C)cc3)ccc2n1C
  A: 2.4% | B: -2.7% | C: -5.1 | D: -6.6% | E: 6.8% | F: ?
(32) Cc1cccc(NC(=S)NCc2ccc3c(c2)cc(C)n3C)c1C
  A: -12.2% | B: 2.1% | C: 8.2 | D: -5.6% | E: 1.2% | F: 28.2µM*
(33) Cc1cc2ccccc2n1CCNC(=O)c1ccc(S(=O)(=O)N2CCCCC2)cc1
  A: 4.0% | B: 2.6% | C: -6.1 | D: 1.4% | E: -1.1% | F: 25.1µM*
(34) CCCOc1ccc(NC(=O)CC2C(=O)N(c3cccc(OC)c3)C(=O)N2Cc2cccs2)cc1 (stereo unspecified)
  A: . | B: 15.0% | C: -7.1 | D: . | E: -0.5% | F: 6.5%
(35) CCOC(=O)c1c(NC(=O)c2cc(CC)on2)sc(C)c1C
  A: . | B: -8.0% | C: -3.2 | D: . | E: -0.4% | F: 6.0%
(36) CCOc1cc(CNC(=O)c2ccc(NC(=O)c3nsc4ccccc34)cc2)ccc1OC
  A: . | B: -38.2% | C: 4.6 | D: . | E: 6.0% | F: -0.3%
(37) Cc1cc2cc(CNC(=O)c3cccc([N+](=O)[O-])c3)ccc2n1C
  A: 1.7% | B: -0.6% | C: 8.7 | D: -4.8% | E: -0.8% | F: -6.5%
(38) COc1cccc(NC(=S)NCc2ccc3c(c2)cc(C)n3C)c1
  A: -1.4% | B: -7.0% | C: -14.0 | D: -0.2% | E: 0.6% | F: ?
(39) Cc1c(C(=O)NCc2ccc3c(c2)cc(C)n3C)cccc1[N+](=O)[O-]
  A: -0.2% | B: -14.0% | C: -2.9 | D: -4.1% | E: 6.3% | F: 28.2µM*
(40) Cc1cc2cc(CNC(=S)Nc3ccc(OC(F)(F)F)cc3)ccc2n1C
  A: -6.7% | B: -2.4% | C: . | D: -5.8% | E: 2.1% | F: 20µM*
(41) CCOc1ccc(CC(=O)NCC(c2cccs2)S(=O)(=O)c2ccc(F)c(C)c2)cc1 (stereo unspecified)
  A: . | B: 7.5% | C: 7.7 | D: . | E: 0.4% | F: 0.8%
(42) Cc1nc(C)c(CC(=O)N2CCc3c([nH]c4ccccc34)C2c2ccccn2)s1 (stereo unspecified)
  A: 18.7% | B: -0.7% | C: -75.4* | D: -6.8% | E: 1.1% | F: -1.3%
(43) CC(=O)c1cc(CC(=O)N2CCc3c([nH]c4ccccc34)C2c2ccccn2)cs1 (stereo unspecified)
  A: -3.1% | B: -10.8% | C: -6.2 | D: 10.9% | E: 0.5% | F: 1.2%
(44) COc1ccc(CNC(=O)CN(Cc2ccccc2F)C(=O)c2csnn2)cc1
  A: 2.7% | B: 4.7% | C: -22.5 | D: -3.0% | E: -1.8% | F: 13.9%
